Source: ChEMBL document CHEMBL3751783, “Straightforward and effective synthesis of γ-aminobutyric acid transporter subtype 2-selective acyl-substituted azaspiro[4.5]decanes” (Bioorg Med Chem Lett, 2016)

Target: Sodium- and chloride-dependent GABA transporter 1 (Mus musculus, UniProt P31648)
Assay: Inhibition of mouse GAT1 mediated [3]GABA uptake expressed in HEK293 cells after 3 mins by scintillation counting
Type: cell-based

IC50: 199 µM
SMILES: COc1ccc(C(OCCN2CCC[C@H](C(=O)O)C2)(c2ccc(OC)cc2)c2ccc(OC)cc2)cc1
